AlphaSeq binding of Ab-14 heavy chain variants to a spike HR2 peptide

Binding partner: SARS-CoV-2 spike HR2 peptide, sequence PDVDLGDISGINAS.

Parent scFv Ab-14: VH joined to VL by three GGGGS repeats. Changes lie in the heavy chain CDRs alone.
VH: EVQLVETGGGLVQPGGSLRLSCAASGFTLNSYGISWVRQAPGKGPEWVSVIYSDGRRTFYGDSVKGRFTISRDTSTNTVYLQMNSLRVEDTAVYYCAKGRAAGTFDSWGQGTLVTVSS
VL: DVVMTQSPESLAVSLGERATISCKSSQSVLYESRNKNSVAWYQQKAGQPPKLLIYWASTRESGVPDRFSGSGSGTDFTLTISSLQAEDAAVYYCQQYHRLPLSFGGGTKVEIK

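Phage display of a naive human antibody library on the peptide gave the parent. These sequences belong to a second round, designed from the earlier measurements on random variants of the parent. Group labels follow the data file (Ctrl: baseline library sampled from a position-specific scoring matrix, with some repeated check sequences; Rand: our label for a block that the file lists under HC and that is probably the random mutants of the ten best first-round binders; GP: Gaussian process model; GPLM: also part of the Gaussian process libraries; HC: hill climbing; Gen: genetic algorithm; Gibbs: Gibbs sampling; a sequence that several methods proposed may carry one label only). AlphaSeq pools MATa yeast showing the antibodies with MATalpha yeast showing the peptide. Pairs that bind mate more often; barcode pairs of the diploids are counted by sequencing. A regression on co-assayed BCL2-family reference pairs converts the normalised counts of each replicate to an apparent Kd. The assay was run in six technical replicates.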

Each variant is given by its three heavy chain CDRs, as the data file delimits them; those of the parent are GFTLNSYGIS, VIYSDGRRTFYGDSVK, GRAAGTFDS.
Variants here have at most six changes.
Each Kd is an estimate from the mating assay, the geometric mean of the replicates in which the pair was seen; lower is stronger.
"nd" marks a missing value. The strain was present, yet no cells mated with the target were sequenced in any replicate, which points to weak or no binding.
The list is sorted by this average, lowest first, undetected variants last.

Variant GFELNSYGIS / VIYADGRRTFYGDSVK / GREAGTFDT [GP_Gen] gave 410 pM (6 of 6 replicates; controls 0 of 18). Variant GFSLNSYGIS / VIYSDGRRTFYADSVK / GRLAGTFDT [GPLM_Gen] gave 1.1 nM (6 of 6 replicates; controls 0 of 18). For GFDLNSYGIS / VIYSDGRRTFYADSVK / GKAAGTFDV [GP_Gen], the assay gave 1.5 nM (6 of 6 replicates; controls 0 of 18). With GFDLNSYGIS / VIYSDGKRTFYGDSVK / GRAAGTFDV [GP_Gen] the result was 1.6 nM (6 of 6 replicates; controls 0 of 18). Variant GFGLNEYGIS / VIYSDGRRTFYADSVK / GRNAGTFDS [GP_HC] gave 1.7 nM (6 of 6 replicates; controls 0 of 18).

Variant GFSLNNYGIS / VIYSDGRRTFYGDSVK / GWTAGTFDS [GPLM_Gen] showed 1.7 nM (6 of 6 replicates; controls 0 of 18). Variant GFSLNEYGIS / VIYSDGRRTFYGDDVK / GKAAGTFDS [GP_Gen] showed 2.0 nM (6 of 6 replicates; controls 0 of 18). Variant GFNLNSYGIS / VIYSDGRRTFYVDSVK / GRTAGTFDT [GP_Gen] showed 2.2 nM (6 of 6 replicates; controls 0 of 18). Variant GFSLNSYGIS / VIYSDGRRTFYGDSVK / GWVAGTFDK [GPLM_Gibbs] gave 3.3 nM (6 of 6 replicates; controls 0 of 18). Variant GFDLNSYGIS / VIYSDGRRTFYGDSVK / GLTAGTFDS [GPLM_Gen] gave 3.8 nM (4 of 6 replicates; controls 0 of 18).

Variant GFDLNSYGIS / VIYSDGRRTFYADMVK / GQAAGTFDS [GP_Gen] gave 3.8 nM (6 of 6 replicates; controls 0 of 18). Variant GFTLNSYGIS / VIYSDGRRTFYGDSVK / GRTAGTFDS [Ctrl+GPLM_Gen] showed 5.6 nM (9 of 12 replicates; controls 0 of 36). With GFTLHQYGIS / VIYSDGRRTFESDSVK / GRAAGFFDS [Rand] the result was 5.7 nM (2 of 6 replicates; controls 0 of 18). With GFVLNEYGIS / VIYSDGRRTFYSDSVK / GKAAGTFDS [GPLM_Gen] the result was 5.8 nM (6 of 6 replicates; controls 0 of 18). Variant GFTLNSYGIS / VIYADGRRAFYGDSVK / GRAAGTFDS [Ctrl] gave 9.8 nM (6 of 6 replicates; controls 1 of 18).

Variant GFNLNSYGIS / VIYSDGRRTFYGDSVK / GRMAGTFDS [GPLM_Gen] showed 13 nM (6 of 6 replicates; controls 0 of 18). With GFTLNSYGIS / VIYSDGLRTFYTDSVK / GKAAGTFDS [GP_Gibbs] the result was 18 nM (6 of 6 replicates; controls 0 of 18). Variant GFTLNEYGIS / VIYSDGRRTFYGDSVK / GRLAGTFIS [GPLM_HC] gave 18 nM (3 of 6 replicates; controls 0 of 18). Variant GFTLNSYGIS / VIYADGRRTFYGDSVK / GRAAGSFDS [Ctrl] showed 18 nM (6 of 6 replicates; controls 0 of 18). Variant GFDLNSYGIS / VIYSDGRRTFYADWVK / GNAAGTFDS [GP_Gibbs] showed 18 nM (5 of 6 replicates; controls 0 of 18).

Variant GFTLESYGIS / VIYSDGKRTFYSDSVK / GKAAGTFDS [GP_Gen] showed 18 nM (6 of 6 replicates; controls 2 of 18). With GFSLNSYGIS / VIYSDGRRTFYGDSVK / GRAAATFDT [GP_Gibbs] the result was 22 nM (1 of 6 replicates; controls 0 of 18). Variant GFTLNSYGIS / VIYSDGMRTAYGDDYK / GRAAGTFDS [Ctrl] gave 41 nM (6 of 6 replicates; controls 1 of 18). For GFDLNSYGIS / VIYSDGMRTFYVDSVK / GRVAGTFDS [GP_Gibbs], the assay gave 50 nM (3 of 6 replicates; controls 0 of 18). For GFWLNEYGIS / VIYSDGRRTFYADSVK / GQAAGTFDS [GPLM_Gen], the assay gave 66 nM (5 of 6 replicates; controls 1 of 18).

With GFVLNSYGIS / VIYSDGRRTFYIDSVK / GEAAGTFDS [GPLM_Gibbs] the result was 74 nM (1 of 6 replicates; controls 0 of 18). With GFWLNEYGIS / VIYSDGRRTFYHDSVK / GRAAGTFDM [GP_HC] the result was 110 nM (1 of 6 replicates; controls 0 of 18). Variant GFSLNSYGIS / VIYSDGRRTFYSDAVK / GKAAGTFDS [GPLM_Gen] showed 130 nM (3 of 6 replicates; controls 0 of 18). With GFTLNSYGIS / VIYSDGRRTQYQDSVK / GRAAGTFDS [Ctrl] the result was 150 nM (1 of 6 replicates; controls 0 of 18). With GFTLNSYGIS / VIYSDGRRTFYDDSVK / GQAAGTFDS [Ctrl] the result was 180 nM (2 of 6 replicates; controls 0 of 18).

Variant GFTLNSYGYS / VIYADGRRTFYGDSVK / GRAAGLFDS [Ctrl] gave 230 nM (2 of 6 replicates; controls 0 of 18). For GFTLNQYGIS / VIYADGRRTFYGDSVE / RRAMGTFDQ [Ctrl], the assay gave 2.4 µM (1 of 6 replicates; controls 0 of 18). With GFTLNSYGIS / VIYSDGRRTFYSDSVK / GQEAGTFFS [GP_HC] the result was nd (0 of 6 replicates; controls 0 of 18). Variant GFELDSYGIS / VIYSDGRRTFYDDSVK / GRSAKTFDS [Ctrl] showed nd (0 of 6 replicates; controls 0 of 18). Variant GFDLNSYGIS / VIYSDGRRTFYGDSVK / GMAAGWFNS [Rand] showed nd (0 of 6 replicates; controls 0 of 18).

For GRTLNSYGIS / VIYSDLRRTFYGDSVK / GRAAGNFDS [Ctrl], the assay gave nd (0 of 6 replicates; controls 0 of 18). With GFTLNSYGIS / VIYSDGRRTFYGDSVK / GRAAGSFDS [Ctrl] the result was nd (0 of 6 replicates; controls 0 of 18). With LFTLNSYGIS / VIYADGRRTFYGDFVK / GRAAGTFDS [Ctrl] the result was nd (0 of 6 replicates; controls 0 of 18). Variant GFDLNSYGIS / VIYSDGRRTFYGDSVK / GRTAGKFNS [GP_HC] showed nd (0 of 6 replicates; controls 0 of 18). With GFWLNEYGIS / VIYSDGRRTFYGDSVK / GRAAGTFWS [GP_HC] the result was nd (0 of 6 replicates; controls 0 of 18).

Variant GFTLNSYGIS / VIYSDGRRVFYADSVK / GRWAATGWS [Ctrl] showed nd (0 of 6 replicates; controls 0 of 18). With GFTINQYYIS / VIYSDGRRTAYGDSVK / GRAAGTFDS [Ctrl] the result was nd (0 of 6 replicates; controls 0 of 18). Variant GFTLNSYGVS / VIYSDGHRTFYSDSVK / GRSMGTFDS [Ctrl] showed nd (0 of 6 replicates; controls 0 of 18). Variant GFTLNQYGIS / VIYSDGRRTIYSDIVK / GRAMGFFDS [Rand] showed nd (0 of 6 replicates; controls 0 of 18). With GFTLNDYGIS / VIYADGRRTFYGDSVK / GTAAGTFDS [GP_HC] the result was nd (0 of 6 replicates; controls 0 of 18).

Variant GFTLNSYGIS / VIYSDGRRTFYSDSVK / GRAADTADS [Ctrl] gave nd (0 of 6 replicates; controls 0 of 18). Variant GFSLNDYGIS / VIYSDGRRTFYGDSVK / GRNAGTFIS [GP_HC] showed nd (0 of 6 replicates; controls 0 of 18).

Excerpt, the final 7 entries:

{"CDR-H1": "GFTLNSYGIS", "CDR-H2": "VIYSDGRRVFYADSVK", "CDR-H3": "GRWAATGWS", "group": "Ctrl", "apparent Kd": "nd", "seen in": "0/6", "signal with controls": "0/18"}
{"CDR-H1": "GFTINQYYIS", "CDR-H2": "VIYSDGRRTAYGDSVK", "CDR-H3": "GRAAGTFDS", "group": "Ctrl", "apparent Kd": "nd", "seen in": "0/6", "signal with controls": "0/18"}
{"CDR-H1": "GFTLNSYGVS", "CDR-H2": "VIYSDGHRTFYSDSVK", "CDR-H3": "GRSMGTFDS", "group": "Ctrl", "apparent Kd": "nd", "seen in": "0/6", "signal with controls": "0/18"}
{"CDR-H1": "GFTLNQYGIS", "CDR-H2": "VIYSDGRRTIYSDIVK", "CDR-H3": "GRAMGFFDS", "group": "Rand", "apparent Kd": "nd", "seen in": "0/6", "signal with controls": "0/18"}
{"CDR-H1": "GFTLNDYGIS", "CDR-H2": "VIYADGRRTFYGDSVK", "CDR-H3": "GTAAGTFDS", "group": "GP_HC", "apparent Kd": "nd", "seen in": "0/6", "signal with controls": "0/18"}
{"CDR-H1": "GFTLNSYGIS", "CDR-H2": "VIYSDGRRTFYSDSVK", "CDR-H3": "GRAADTADS", "group": "Ctrl", "apparent Kd": "nd", "seen in": "0/6", "signal with controls": "0/18"}
{"CDR-H1": "GFSLNDYGIS", "CDR-H2": "VIYSDGRRTFYGDSVK", "CDR-H3": "GRNAGTFIS", "group": "GP_HC", "apparent Kd": "nd", "seen in": "0/6", "signal with controls": "0/18"}

Background: pairings of all heavy chain designs with three empty control strains gave a value in 1% of cases (median 120 nM, 5th percentile 7.0 nM). Values in that range, when seen in few replicates, are hard to tell from nonspecific mating. Also given: how often the same scFv was detected with the empty control strains.
The authors averaged sequences with at least three values out of six and counted those with two or fewer as poor binders.
Some sequences occur more than once in the pool; their replicates are pooled.
Values of this round are not directly comparable with the first-round values of the same sequences.
Of ten entries with the parent sequence, four were seen in most replicates (averages 2.2 nM to 240 nM), three in one and three in none, so single entries are noisy.

Data: MIT Lincoln Laboratory AlphaSeq set, Li et al. 2023, doi:10.1038/s41467-023-39022-2, as distributed in FLAb.